Laboratory results reported in ChEMBL document CHEMBL1142302, “Discovery of subnanomolar arginine-glycine-aspartate-based alphaVbeta3/alphaVbeta5 integrin binders embedding 4-aminoproline residues” (J Med Chem, 2008).

Chains of the proteins cited; added tags and fusions are not shown. Lines headed by an entry give the natural chain unless they say otherwise; changes in a name come on top.
UniProt P05106: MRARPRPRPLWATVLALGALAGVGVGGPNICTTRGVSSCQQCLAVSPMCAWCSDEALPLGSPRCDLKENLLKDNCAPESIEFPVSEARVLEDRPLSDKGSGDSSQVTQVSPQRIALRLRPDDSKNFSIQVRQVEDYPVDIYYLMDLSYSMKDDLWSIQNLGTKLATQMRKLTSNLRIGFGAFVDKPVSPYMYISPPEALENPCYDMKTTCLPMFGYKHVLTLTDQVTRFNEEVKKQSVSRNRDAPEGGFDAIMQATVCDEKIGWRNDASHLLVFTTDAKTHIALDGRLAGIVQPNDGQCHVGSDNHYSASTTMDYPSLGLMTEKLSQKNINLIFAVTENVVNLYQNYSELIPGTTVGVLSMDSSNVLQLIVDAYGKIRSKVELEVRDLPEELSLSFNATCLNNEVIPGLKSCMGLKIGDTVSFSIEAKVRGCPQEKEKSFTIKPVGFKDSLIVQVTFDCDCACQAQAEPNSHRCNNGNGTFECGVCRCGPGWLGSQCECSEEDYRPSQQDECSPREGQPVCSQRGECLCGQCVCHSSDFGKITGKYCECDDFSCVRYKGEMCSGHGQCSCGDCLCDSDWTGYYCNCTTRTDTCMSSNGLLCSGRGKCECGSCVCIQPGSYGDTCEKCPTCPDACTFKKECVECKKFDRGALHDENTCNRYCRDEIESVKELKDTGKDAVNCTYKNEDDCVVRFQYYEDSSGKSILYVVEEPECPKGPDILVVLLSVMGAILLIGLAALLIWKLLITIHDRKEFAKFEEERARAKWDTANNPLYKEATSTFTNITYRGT
UniProt P06756: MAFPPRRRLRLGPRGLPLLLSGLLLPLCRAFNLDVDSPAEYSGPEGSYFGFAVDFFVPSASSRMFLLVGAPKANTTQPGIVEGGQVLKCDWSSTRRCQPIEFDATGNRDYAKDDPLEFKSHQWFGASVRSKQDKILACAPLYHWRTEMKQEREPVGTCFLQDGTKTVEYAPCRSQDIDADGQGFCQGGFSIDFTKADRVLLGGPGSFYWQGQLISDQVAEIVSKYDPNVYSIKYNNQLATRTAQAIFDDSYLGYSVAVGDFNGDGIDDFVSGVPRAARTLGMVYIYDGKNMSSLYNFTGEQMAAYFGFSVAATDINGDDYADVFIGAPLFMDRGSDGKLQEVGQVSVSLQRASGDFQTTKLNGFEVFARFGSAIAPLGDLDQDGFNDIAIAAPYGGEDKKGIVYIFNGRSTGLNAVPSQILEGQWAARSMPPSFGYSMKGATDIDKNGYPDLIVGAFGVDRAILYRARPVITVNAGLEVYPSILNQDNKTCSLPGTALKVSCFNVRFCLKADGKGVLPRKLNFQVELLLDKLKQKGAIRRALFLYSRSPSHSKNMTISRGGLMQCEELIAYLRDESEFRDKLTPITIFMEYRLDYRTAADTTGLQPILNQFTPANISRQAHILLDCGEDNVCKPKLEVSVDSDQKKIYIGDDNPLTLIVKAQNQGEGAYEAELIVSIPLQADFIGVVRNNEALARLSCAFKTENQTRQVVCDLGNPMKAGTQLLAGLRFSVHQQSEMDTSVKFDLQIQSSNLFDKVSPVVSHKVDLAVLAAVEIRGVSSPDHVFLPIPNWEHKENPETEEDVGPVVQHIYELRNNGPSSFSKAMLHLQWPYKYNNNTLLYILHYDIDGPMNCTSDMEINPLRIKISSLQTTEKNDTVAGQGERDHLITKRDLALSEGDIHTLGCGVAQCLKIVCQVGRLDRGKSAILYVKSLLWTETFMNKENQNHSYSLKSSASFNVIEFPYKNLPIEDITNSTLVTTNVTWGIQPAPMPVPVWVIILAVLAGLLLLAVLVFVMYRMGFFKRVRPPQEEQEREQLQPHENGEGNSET

Columns and labels:
Integrin alpha-V/beta-3 [1] = target: T1, Integrin alpha-V/beta-3 (Homo sapiens, UniProt P05106+P06756); test: Displacement of [125I]echistatin from human integrin alpha-V-beta-3 receptor high affinity state by solid phase assay relative to control; format: protein-complex assay; set-up: concentration or dose not given beside the values; conditions: concentration not given here
How it was run: (§1)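 Competition for [125I]-echistatin specific binding to purified human αvβ3 or αvβ5 integrin protein. Inhibition was plotted against test compound concentration. Each point is the mean ± SEM of triplicate determinations.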

Integrin alpha-V/beta-3 [2] = target: T1, Integrin alpha-V/beta-3; test: Displacement of [125I]echistatin from human integrin alpha-V-beta-3 receptor low affinity state by solid phase assay relative to control; format: protein-complex assay; set-up: concentration or dose not given beside the values; conditions: concentration not given here; how it was run: as §1

An inhibition (Integrin alpha-V/beta-3 [1]) of 18% and an inhibition (Integrin alpha-V/beta-3 [2]) of 82% were found for N=C1NCCC[C@@H](C(=O)O)NC(=O)CNC(=O)[C@@H](N)CC(=O)N[C@@H]2CN[C@H](C2)C(=O)N1 in this work.
